In patent publication US9388151B2, “Methods for producing 5-(halomethyl) furfural” (MICROMIDAS, INC., priority 2012, dated 2016):

Protocol: The amount of solvent and CMF used are detailed in Table 1.
Once the vials were filled and sealed, each vial was held at the temperatures listed in Table 1 above for 20-30 minutes, at which time a sample was taken and analyzed by HPLC.
An aliquot was analyzed by HPLC. The following HPLC protocol was used. The column was an Agilent Technologies RX-Sil silica column; 4.6×100 mm packed with 1.8 micron silica beads. Column temperature was maintained at 50° C. Injection volume was 1.0 microliter. Mobile phase composition was 80% hexane and 20% tetrahydrofuran flowing at 1.0 mL/min.

## Cc1ccccc1 [Toluene]
  CMF saturation concentration at specified temperature: 316 mg/mL
